The text below walks through data of patent EP2608671B1, “COMPOUNDS FOR TREATMENT OF CANCER” (Gtx, Inc., priority 2010, dated 2012).

The subject of data set [1] is PC-3 prostate tumor xenograft. The data set is described as follows: In vivo antitumor efficacy, PC-3 xenograft. More on the design: species or system mouse. The conditions noted are these: PC-3 tumors, 10 mg/kg i.v.
For data set [2] the following is noted: rat, PO; 10 mg/kg (2r: 4 mg/kg).

A word on the Cmax: it is the highest concentration seen after dosing.

For `CC(=O)O[C@@]12CO[C@@H]1C[C@H](O)[C@@]1(C)C(=O)[C@H](O)C3=C(C)[C@@H](OC(=O)[C@H](O)[C@@H](NC(=O)OC(C)(C)C)c4ccccc4)C[C@@](O)([C@@H](OC(=O)c4ccccc4)[C@H]21)C3(C)C` [Docetaxel, reference compound], the “tumor growth inhibition (TGI)” value in data set [1] stood at 84%.

For the molecule `COc1cc(C(=O)c2csc(-c3ccccc3)n2)cc(OC)c1OC` [1h, (2-Phenyl-thiazol-4-yl)-(3,4,5-trimethoxy-phenyl)-methanone], the peak concentration (Cmax) in data set [2] worked out at 212 ng/mL.
